Laboratory results reported in patent US20090088432A1, “Thiazolinones and Oxazolinones and their Use as Ptp1b Inhibitors” (priority 2005, published 2009).

Key:
[1] = test system: high fat fed C57BL/6 male mice; assay: Intraperitoneal insulin tolerance test (ITT) in diet induced obese mice; conditions: 200 mg/kg, i.p., end of 4 days of treatment; glucose at 15, 30, 60 and 120 min post insulin challenge, vs. vehicle
[2] = test system: high fat fed C57BL/6 male mice; assay: Fasted and non-fasted blood glucose in diet induced obese mice; conditions: 200 mg/kg, change from baseline (day 0), vs. vehicle control

N-{2-[4-(5-Biphenyl-4-ylmethlene-4-oxo-4,5-dihydro-thiazol-2-ylamino)-phenyl]-acetyl}-4-methyl-benzenesulfonamide sodium salt
AUC blood glucose post insulin tolerance test (insulin sensitivity) [1]: improved insulin sensitivity
percent change in non-fasted blood glucose ([2]; i.p. for 4 days, day 4, one hour post dosing): significant improvement
percent change in fasted blood glucose ([2]; i.p., 4 hr fasted, day 2 post dosing): significant improvement
